From ChEMBL document CHEMBL1157636, “Novel C-aryl glucoside SGLT2 inhibitors as potential antidiabetic agents: 1,3,4-Thiadiazolylmethylphenyl glucoside congeners” (Bioorg Med Chem, 2010)

Molecular target: T1, Sodium/glucose cotransporter 2 (Homo sapiens, UniProt P31639)
T1 sequence (P31639 whole entry): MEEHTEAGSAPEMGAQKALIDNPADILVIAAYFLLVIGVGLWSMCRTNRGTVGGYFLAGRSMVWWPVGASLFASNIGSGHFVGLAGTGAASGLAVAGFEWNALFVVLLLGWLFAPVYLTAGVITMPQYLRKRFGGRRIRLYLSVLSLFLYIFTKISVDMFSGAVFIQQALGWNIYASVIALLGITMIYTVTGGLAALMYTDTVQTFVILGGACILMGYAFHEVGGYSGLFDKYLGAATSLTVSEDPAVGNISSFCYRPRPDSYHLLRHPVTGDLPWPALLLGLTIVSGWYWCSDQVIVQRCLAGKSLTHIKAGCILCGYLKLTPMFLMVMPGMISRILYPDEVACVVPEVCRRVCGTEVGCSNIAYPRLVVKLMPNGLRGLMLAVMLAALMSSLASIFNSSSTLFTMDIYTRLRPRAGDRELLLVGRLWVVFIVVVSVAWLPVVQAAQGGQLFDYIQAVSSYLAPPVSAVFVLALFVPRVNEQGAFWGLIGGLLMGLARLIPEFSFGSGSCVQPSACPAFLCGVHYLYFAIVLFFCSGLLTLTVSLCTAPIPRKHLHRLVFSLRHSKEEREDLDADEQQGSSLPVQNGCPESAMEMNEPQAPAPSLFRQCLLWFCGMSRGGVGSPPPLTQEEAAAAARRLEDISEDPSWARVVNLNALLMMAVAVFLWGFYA
Experiment: Inhibition of human recombinant SGLT2 expressed in CHO cells by liquid scintillation counting
Format: cell-based
Summary of the method: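 hSGLT2 cloned from human kidney cDNA; stable clones selected by G418 resistance. Preincubated 10 min at 37 °C in sodium-free choline buffer pH 7.4. Then 2 h at 37 °C in Na⁺ uptake buffer with 1 mM unlabeled AMG plus ¹⁴C-AMG and inhibitor or DMSO. Washed, radioactivity counted; IC50 by nonlinear regression.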

Row | Compound | IC50 [nM]
1 | OC[C@H]1O[C@H](c2cccc(Cc3nnc(-c4ccccc4)s3)c2)[C@H](O)[C@@H](O)[C@@H]1O | 1420
2 | OC[C@H]1O[C@H](c2cccc(Cc3nnc(-c4cccnc4)s3)c2)[C@H](O)[C@@H](O)[C@@H]1O | 1230
